Measurements taken from US8110398B2, “Stable cell lines and methods for evaluating gastrointestinal absorption of chemicals” (Absorption Systems Group, LLC, priority 2006, dated 2012).

By UniProt entry, the sequences of proteins in these tests, tags left out.
UniProt P08183, whole entry: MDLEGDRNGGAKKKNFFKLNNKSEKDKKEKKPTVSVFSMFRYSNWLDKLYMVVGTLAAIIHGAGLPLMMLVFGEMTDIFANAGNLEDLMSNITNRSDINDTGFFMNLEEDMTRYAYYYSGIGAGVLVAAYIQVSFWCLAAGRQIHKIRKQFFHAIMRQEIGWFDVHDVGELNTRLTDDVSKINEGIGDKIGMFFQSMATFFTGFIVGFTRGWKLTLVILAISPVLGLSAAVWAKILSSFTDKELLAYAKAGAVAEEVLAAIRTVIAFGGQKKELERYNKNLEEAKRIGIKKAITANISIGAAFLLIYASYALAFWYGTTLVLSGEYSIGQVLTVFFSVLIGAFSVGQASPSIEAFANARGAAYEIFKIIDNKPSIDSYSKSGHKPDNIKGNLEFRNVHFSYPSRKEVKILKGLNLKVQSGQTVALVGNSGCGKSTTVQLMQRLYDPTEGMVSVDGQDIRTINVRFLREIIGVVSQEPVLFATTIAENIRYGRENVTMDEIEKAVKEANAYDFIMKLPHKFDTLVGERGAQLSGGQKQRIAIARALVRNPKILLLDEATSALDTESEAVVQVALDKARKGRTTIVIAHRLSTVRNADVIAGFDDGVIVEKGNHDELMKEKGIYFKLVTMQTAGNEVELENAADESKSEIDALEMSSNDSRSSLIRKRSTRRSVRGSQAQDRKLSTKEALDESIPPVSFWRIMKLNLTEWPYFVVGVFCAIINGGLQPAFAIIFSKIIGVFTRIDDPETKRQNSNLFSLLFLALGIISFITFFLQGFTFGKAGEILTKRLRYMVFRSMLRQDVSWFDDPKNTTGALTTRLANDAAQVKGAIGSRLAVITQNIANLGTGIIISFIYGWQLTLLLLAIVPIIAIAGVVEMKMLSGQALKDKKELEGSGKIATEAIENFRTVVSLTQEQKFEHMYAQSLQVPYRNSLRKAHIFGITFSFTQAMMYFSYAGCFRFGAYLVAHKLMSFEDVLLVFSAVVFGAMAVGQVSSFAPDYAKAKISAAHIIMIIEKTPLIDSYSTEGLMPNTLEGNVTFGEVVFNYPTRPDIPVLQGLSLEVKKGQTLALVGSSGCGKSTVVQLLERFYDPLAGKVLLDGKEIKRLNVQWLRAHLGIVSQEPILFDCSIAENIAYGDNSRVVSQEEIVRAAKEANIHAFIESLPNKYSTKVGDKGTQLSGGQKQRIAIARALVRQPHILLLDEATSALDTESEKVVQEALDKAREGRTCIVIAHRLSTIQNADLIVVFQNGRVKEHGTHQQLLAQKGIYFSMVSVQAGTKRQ

Tests used:
P-gp = P-gp (Homo sapiens, UniProt P08183); conditions: from efflux ratios in clone #801 and parental C2BBe1 cells
C2BBE1 cells = conditions: reference values; cited from earlier work
[1] = reference values; cited from earlier work

Substance | P-gp Substrate? (P-gp) | Papp in C2BBE1 cells (C2BBE1 cells) | % Absorption in human [1] [%]
Sulfasalazine | not a P-gp substrate and No | 0.13 10^−6 cm/s | 
1-Deamino-8-D-arginine |  |  | 1
